In patent US20040101521A1, “Iron sequestration or elimination to reduce neurodegeneration or Parkinsons disease progression” (The Buck Institute for Research on Aging, priority 2002, published 2004):

Assays:
Format in all cases: in vivo, mouse
[1] = system: MPTP-induced dopaminergic SN cell loss; assay: Stereological TH+ SN neuron counts after MPTP; conditions: ferritin transgenics, n=7
Description: Neuronal counts were performed on TH+ positive SN neurons using the unbiased dissector method (West (1993) Neurobiol. Aging 14: 275-285). Fixed coronal brain sections (40 μm) were immunostained with TH antibody (1:500 dilution, Chemicon), coverslipped in aqueous medium and TH+ cells counted from a total of 15-20 sections in each field per brain (i.e. every second section) at a magnification of 100× using the optical fractionator approach.
(§1) Animals were injected with either 15 mg/kg body weight MPTP or saline every 2 hrs, 4 doses. Dopamine, DOPAC, and HVA or MPP+ from dissected striata were analyzed by I-PLC using a 5 micrometer C-18 reverse phase column and precolumn (Brownlee Labs) followed by electrochemical detection with a glassy carbon electrode (Klivenyi et al. (2000) J. Neurosci. 20: 1-7).

[2] = SN ferritin-bound ferric iron by MRI in pTH-ferritin transgenics; conditions: n=4
From the text: Mice were housed according to standard animal care protocols, fed ad libitum, kept on a 12-hr light/dark cycle and maintained in a pathogen-free environment in the Buck Institute Vivarium. Animals used for studies were young adults (2-6 months of age). Ferritin transgenic mice were generated via injection of an 8.3 kb Hind III DNA fragment containing 4.8 kb of 5′ upstream sequences from the rat TH gene (Banjeree et al. (1992) J. Neurosci. 12:4460-4467), 2.6 kb of human genomic ferritin DNA encompassing the 4 coding region exons (Hentze et al., 1986), and 3′ SV40 splice and poly-adenylation sequences into fertilized B6D2 mouse embryos to create pTH-ferretin transgenic founder animals. For CQ studies, C57B1 mice were obtained from Jackson Labs and randomized for therapy trials. CQ was suspended in 0.05% carboxymethylcellulose (Sigma) and delivered via oral gavage at a daily dosage of 30 mg/kg as previously described for a period of 8 weeks (Cherny et al. (2001) Neuron 30: 665-676); controls received vehicle alone.
MRI studies were performed using a Bruker AMX500 11.7 tesla MRI system as previously described (Gilissen et al. (1998) Am. J. Primatol. 45: 291-299). Brains were fixed as described above and MRI performed in the coronal plane. […]

[3] = Spectrophotometric analysis of bioavailable ferrous iron in SN tissue
Description: Levels of ferrous iron available to bind ferrozine were determined in dissected SN tissue spectrophotometrically at 578 nm as previously described (Agrawal et al. (2001) Toxicology 168: 223-230).

[4] = Ferric iron histochemistry (Perls) in SN; conditions: transgenic vs. wild-type
Description: Coronal sections from brains of adult animals were subjected to formalin fixation and Perls staining using potassium ferrocyanide as previously described (Hill and Switzer (1984) Neurosci. 11: 595-603). The percentage area covered by ferric-ferrocyanine product was assessed by Camera Luminace Drawing.

[5] = system: MPTP-induced oxidative stress; assay: ROS by DCF fluorescence in SN after MPTP; conditions: transgenic animals, MPTP 30 mg/kg i.p., 8 hrs, n=8
Description: Animals were i.p. injected with either 30 mg/kg body weight MPTP or saline. Eight hours following injection, synaptosomal fractions were prepared from the SN and used for DCF analysis (Ali et al. (1992) Neurotoxicol,. 13: 637-648). Fluorescence was monitored on a Turner spectrofluorometer with an excitation wavelength of 448 mm and an emission wave length of 525 nm. Protein was normalized by the Bradford method.

[6] = system: MPTP-induced oxidative stress; assay: SN GSH levels after MPTP; conditions: ferritin transgenics, n=8
Description: Following MPTP or saline injection, GSH levels were measured in the SN by the method of Griffith (Griffith (1980) Anal. Biochem. 106; 207-212).

[7] = Open field analysis of spontaneous motor activity; conditions: ferritin animals, n=6-8
Description: Ferritin transgenics vs. wild type littermates and CQ-fed vs. saline-fed animals used for open field behavioral studies were 2-5 months of age. 6-8 mice in each category were tested. Behavioral parameters were monitored in a Coulbourn Instrument Tru Scan activity monitor. Motor activities were recorded every 100 ms for a 10 minute period. Tru Scan 99 software was used to generate experimental protocols and to acquire and store the data. The data was exported to EXCEL and analyzed via one way ANOVA.

[8] = system: MPTP-induced toxicity; assay: Striatal dopamine, DOPAC and HVA by HPLC after MPTP; conditions: ferritin transgenics, n=5
Description: as §1

Substance: ferritin: human ferritin heavy subunit, iron-binding protein, transgenically expressed in dopaminergic SN neurons of mice under rat TH promoter
- TH+ SN cell numbers ([1]; MPTP-treated, 7 days): 10,500±700
- TH+ SN cell numbers ([1]; saline-treated): 11,100±600
- Increase in MRI signal intensity, transgenic vs. wild-type [2]: 33.7%±8.5
- Bioavailable SN ferrous iron level ([3]; Tg, n=4): 2.7±0.13 μg/g SN tissue
- Decrease in bioavailable SN ferrous iron levels ([3]; ferritin transgenic SN vs. wild-type): 22%±9.8
- Increase in numbers of Perls-positive SN cells [4]: 22.4%±4.7
- ROS levels in SN after MPTP [5]: 95±4.0%
- Change in SN GSH after MPTP ([6]; 2 hrs): +1.0±0.5%
- Change in SN GSH after MPTP ([6]; 8 hrs): +0.5±0.3%
- Adverse behavioral effects in 12 motor activity assays (open field) [7]: No adverse behavioral effects
- Striatal DA ([8]; MPTP-treated): 95.0±0.8 ng/mg protein
- Striatal DOPAC ([8]; MPTP-treated): 7.0±01.0 ng/mg protein
- Striatal HVA ([8]; MPTP-treated): 9.0±0.7 ng/mg protein
- Striatal DA ([8]; saline-treated): 105±3.0 ng/mg protein
- Striatal DOPAC ([8]; saline-treated): 10.0±0.54 ng/mg protein
- Striatal HVA ([8]; saline-treated): 10.5±0.6 ng/mg protein
